Earlier results in patent publication US20220033460A1, “IDENTIFICATION AND USE OF T CELL EPITOPES IN DESIGNING DIAGNOSTIC AND THERAPEUTIC APPROACHES FOR COVID-19” (priority 2020, published 2022).

Molecular target: T1, I-Ab (Mus musculus, UniProt P14434+P14483)
T1 sequence (P14483 28-265): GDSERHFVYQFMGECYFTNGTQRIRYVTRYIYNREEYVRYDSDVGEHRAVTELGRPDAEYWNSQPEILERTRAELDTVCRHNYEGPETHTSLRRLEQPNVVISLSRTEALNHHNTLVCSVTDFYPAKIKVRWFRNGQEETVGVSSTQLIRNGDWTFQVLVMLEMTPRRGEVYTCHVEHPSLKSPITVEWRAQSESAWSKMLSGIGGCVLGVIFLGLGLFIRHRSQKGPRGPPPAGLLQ
T1 sequence (P14434 24-256): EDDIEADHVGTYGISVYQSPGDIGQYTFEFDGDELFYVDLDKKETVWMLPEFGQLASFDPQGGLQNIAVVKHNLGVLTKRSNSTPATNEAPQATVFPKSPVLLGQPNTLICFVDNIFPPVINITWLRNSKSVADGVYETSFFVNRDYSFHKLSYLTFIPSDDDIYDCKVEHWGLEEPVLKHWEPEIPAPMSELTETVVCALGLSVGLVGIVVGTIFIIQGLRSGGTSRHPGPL
Conditions: I-Ab presented peptides cloned in MCR2 vector; read-out: IC50 (I-Ab binding affinity); cited from earlier work

For FSLSAAVKAGASLID, the IC50 is given as 638 nM.
